The values that follow are results of earlier work, collected in PMC10608500, “Xinghamide A, a New Cyclic Nonapeptide Found in Streptomyces xinghaiensis” (Marine Drugs, 2023).

pIC50: −log10 of the molar value.

The data set concerns HeLa cells derived from cervical cancer. The note with it: read-out: IC50, cytotoxic activity against HeLa cells.

Turning to heptavalinamide A, the pIC50 (in general, the negative decadic logarithm of the IC50, by convention in mol/L) was 5.55.
